Reference: PMC9688475, “Identification and Analysis of Small Molecule Inhibitors of CRISPR-Cas9 in Human Cells” (Cells, 2022)

Test system: HEK293T reporter cells
Assay: Cytotoxicity assay (CCK-8)
Type: cell-based, human
Settings: 100 μM, 72 h
Experimental: HEK293T reporter cells were plated in 96-well plates (4–6 × 10^3 cells/well) and cultured for 12 h before the following experiments. The medium was replaced with 100 μL fresh medium containing compounds or DMSO. The medium change was performed 72 h afterward and cytotoxicity was measured by the cell-counting kit-8 (CCK-8, Dojindo Laboratories, Japan) reagent following the manufacturer’s instructions.

## 1-(2-(4-nitrophenyl) hydrazono)-4-bromo-acetophenone [C12]
  cytotoxicity (cell survival, CCK-8): no cytotoxicity
